Laboratory results taken from patent publication US20090053168A1, “TREATMENTS OF B-CELL PROLIFERATIVE DISORDERS” (priority 2007, published 2009).

How the values were obtained:
MM.1S cells = assay: Anti-proliferation assay (ATPLite, 72 h), MM.1S
RPMI-8226 cells = assay: Anti-proliferation assay (ATPLite, 72 h), RPMI-8226; type: cell-based
H929 cells = assay: Anti-proliferation assay (ATPLite, 72 h), H929; type: cell-based

Structure (SMILES) | synergy score (MM.1S cells; in combination with ADAC, MM.1S) | Synergy score with dexamethasone, RPMI-8226 (RPMI-8226 cells) | Synergy score with dexamethasone, MM.1S (MM.1S cells) | Synergy score with dexamethasone, H929 (H929 cells)
COc1cccc2c1C(=O)c1c(O)c3c(c(O)c1C2=O)C[C@@](O)(C(=O)CO)C[C@@H]3O[C@H]1C[C@H](N)[C@@H](O)[C@H](C)O1 [Epirubicin] | 1.48 |  |  | 
COc1ccc([C@@H]2CNC(=O)C2)cc1OC1CCCC1 [R-(−)-Rolipram] |  | 1.72 | 0.371 | 0.545
